Here are results for two compounds from patent US8828966B2, “Method for treatment of macular degeneration by modulating P2Y12 or P2X7 receptors” (priority 2006, dated 2014).

One experiment deals with ARPE-19 cells. Put plainly: Clearance (degradation) of calcein-labeled photoreceptor outer segments. The conditions noted are these: after 24 hrs. Type of experiment: cell-based, human. Here is the method:
Outer Segment Degradation: Bovine retinas were homogenized in 20% sucrose with 130 mM NaCl, 20 mM Tris-HCl, 10 mM glucose, 5 mM taurine and 2 mM MgC12 (pH 7.20). The homogenate was placed in ultracentrifuge tubes with 20%, 27%, 33%, 41%, 50% and 60% sucrose, respectively, and centrifuged for 70 minutes at 28,000 rpm on a SW28 rotor (4° C.). The supernatant was filtered, diluted in 0.02M Tris-HCl buffer (pH 7.2) and centrifuged at 13,000×g for 10 minutes (4° C.). The pellet was resuspended in […], 0.1 mM NaCl and 2.5% sucrose. Outer segments were loaded with 5 μM calcein-AM in PBS for 10 minutes, and spun 2× at 14,000 rpm to wash. Outer segments were then diluted 1:100 in growth medium and added to ARPE-19 cells in 96-well plates. After 2 hours, cells were washed vigorously 3×, and incubated with growth medium for 3 hours, after which 30 μM tamoxifen was added with acidifying drugs. After 24 hours, wells were washed 3×, and the fluorescence was read with a plate scanner at 485 nm to quantify the signal.
Isolated bovine outer segments loaded with calcein were supplied to ARPE-19 cells in 96-well plates for 2 hrs, washed 3× and maintained in control medium for an additional 3 hr (see Methods). […] Drugs were given to cells both with, and without, tamoxifen to determine whether baseline levels of degradation were also altered. […]

For the next experiment, the target named is T1, A2B receptor (Homo sapiens, UniProt P29275).
T1 sequence (P29275 1-332): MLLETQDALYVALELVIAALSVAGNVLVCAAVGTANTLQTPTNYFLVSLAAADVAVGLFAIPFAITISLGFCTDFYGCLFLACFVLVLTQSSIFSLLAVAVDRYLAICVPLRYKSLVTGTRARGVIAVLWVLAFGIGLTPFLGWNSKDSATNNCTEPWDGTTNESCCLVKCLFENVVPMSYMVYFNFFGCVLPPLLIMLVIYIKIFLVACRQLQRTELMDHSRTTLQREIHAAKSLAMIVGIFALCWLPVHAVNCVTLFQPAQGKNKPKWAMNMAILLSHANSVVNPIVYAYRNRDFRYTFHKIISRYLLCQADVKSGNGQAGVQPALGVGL
The conditions noted are these: read-out: IC50 for the A2B receptor; antagonist; cited from earlier work.

Each structure is given as a SMILES string.

On to `CCN(CC)CCCC(C)Nc1ccnc2cc(Cl)ccc12` (centres unmarked) [chloroquine], for which, in the experiment on ARPE-19 cells, the “clearance of calcein-labeled outer segments, alkalinizing agent alone” value is “slowed clearance of outer segments”. Take `CCCn1c(=O)c2[nH]c(-c3ccc(OCC(=O)Nc4ccc(C#N)cc4)cc3)nc2n(CCC)c1=O` [MRS1754]: the IC50 (as a rule, the concentration at which inhibition is half-maximal) on A2B receptor was 2 nM.
